Literature values as cited in US7947280B2 (priority 2003, dated 2011).

Tested on: isolated rat heart
Details: Szokodi et al; cited from earlier work

Substance: apelin
- maximum developed tension relative to isoproterenol: 70%
